Screening data (PubChem BioAssay)
Sampled rows, rich in hits. Any-hit rate of the full collection: about 2.3%.
Glioma ERSR ind: inducers of ER stress response in human glioma cells; U87-MG GRP78 promoter luciferase reporter, 16 h; Potency, µM, most hits filed as activators; hit rate 0.02% among 420,000; AID 602332; note: series mostly up to about 76 µM; nearly all actives have a fitted effect of over 35% in size
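Stably transfected U87-MG human glioma cells carrying a GRP78-based luminescent sensor were seeded at 1000 cells/well, pin-dosed with compounds and incubated 16 h. Luciferase reagent was then added, and end-point luminescence was read after 10 min at room temperature.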
Mito fusion yeast: mitochondrial division inhibition or fusion activation; S. cerevisiae fusion-defective mutant growth rescue, CellTiterGlo 48 h; Potency, µM (highest dose often 46.1 µM), most hits filed as activators; hit rate 0.23% among 320,000; note: nearly all actives have a fitted effect of over 45% in size
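Compounds are tested for their ability to restore growth of mitochondrial fusion-defective yeast strains at non-permissive 37C in YPEG medium over 48 hours. Viability is quantified by luciferase luminescence.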
Nrf2 ARE act: activators of Nrf2 (ARE) signaling; AREc32 ARE-luciferase reporter (MCF7-derived line), luminescence, 24 h; Potency, µM (top dose mostly 46.1 µM), usual class: activators; hit rate 0.31% among 410,000; AID 624171; note: nearly all actives have a fitted effect of over 65% in size
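Cells of the AREc32 ARE-luciferase line are plated in OPTI-MEM containing 5% FBS and left overnight at 37 deg C. Compounds are pinned in, incubation continues 24 hr, and firefly luciferase signal is then measured.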
A549 viability: counter-screen for Nrf2 inhibitors: cytotoxicity in A549 cells; A549 ARE-Fluc cells, CellTiter-Fluor viability, 18-24 h; Potency, µM (top dose mostly 46 µM), actives largely listed as inhibitors; hit rate 0.16% among 390,000
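A549 ARE-Fluc cells in 5% FBS OPTI-MEM, 5000 cells/well, rested 2 h then exposed to compounds in concentration-response for 18-24 h at 37 °C. Viability by CellTiter-Fluor fluorescence (Ex 405/Em 525) after 30 min; luciferase luminescence (BugLite, 15 min, RT) read afterwards.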
miR-21 reporter: miR-21 reporter, rising signal; HeLa miR-21 FLuc reporter, luciferase, 48 h; Potency, µM (titrated, usually from 38.3 µM); AID 2288; 340,000 tested, under 10 active; active = well fitted rising curve with a large enough effect; inconclusive = small, poorly fitted or top-dose-only effect; inactive = no such curve, though single readings can be large or run the other way;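 further: miR-21 action dims this reporter so a rising signal means less miR-21 action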
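Compounds were titrated across several concentrations (up to approximately 40 uM) and incubated 48 hours with HeLa miR-21-FLuc reporter cells (miR-21 target sequence downstream of FLuc, endogenous miR-21). Readout was firefly luciferase luminescence after lytic detection reagent.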
Nrf2 inh: blocks Nrf2 signaling | A549 ARE-Fluc reporter, luciferase luminescence, 18-24 h | Potency, µM (highest dose often 46 µM), most hits filed as inhibitors | hit rate 2.1% among 360,000 | AID 504444; note: nearly all actives have a fitted effect of over 60% in size
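Quantitative HTS in A549 cells stably bearing an antioxidant response element-firefly luciferase construct. Inhibition of Nrf2-driven transcription was scored by luminescence after 18-24 h of compound exposure at 37 °C.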
Numbers stand for hits; – = inactive; ? = inconclusive; · = no result. Unless noted, calls come from the whole dose curve; as a rule, active = well fitted curve in the direction sought with a large enough effect; inconclusive = small, poorly fitted or top-dose-only effect, or another doubt; inactive = no such curve, though single readings can be large; an effect the other way counts as inactive or inconclusive.

SMILES	Glioma ERSR ind	Mito fusion yeast	Nrf2 ARE act	A549 viability	miR-21 reporter	Nrf2 inh
O=C(Cn1c(=O)n(-c2ccccc2)c(=O)c2ccc(C(=O)NCc3ccc4c(c3)OCO4)cc21)Nc1ccc(Br)cc1	–	·	–	–	–	–
Cc1c(NC(=O)CN2C(=O)c3ccccc3S2(=O)=O)c(=O)n(-c2ccccc2)n1C	–	–	–	–	–	·
Cc1ccc2nc(NC(=O)CSCC(=O)OCC(=O)c3ccc(Br)cc3)sc2c1	–	–	–	–	–	18µM
CC(Sc1nc(N)cc(=O)[nH]1)C(=O)Nc1sc2c(c1C#N)CCCC2 (configuration not stated)	–	–	–	–	–	13µM
N#Cc1c(NC(=O)CSc2nc(N)cc(=O)[nH]2)sc2c1CCCCCC2	–	–	–	–	–	7.3µM
N#Cc1c(NC(=O)C2CC2)sc2c1CCCCC2	–	16µM	–	–	–	–
O=C(Nc1ccccc1Cl)c1cc(C2CCCN(C(=O)c3ccc4c(c3)CCO4)C2)on1 (configuration not stated)	–	·	–	·	·	·
COc1ccc(NC(=O)Cn2nnc(C(=O)NCc3cccs3)c2N)c(OC)c1	–	–	–	?	–	18µM
COc1cccc(NC(=O)Cn2nnc(C(=O)NCc3cccs3)c2N)c1	–	–	–	–	–	–
COc1ccc(NC(=S)N2CCC(Cc3ccccc3)CC2)cc1OC	–	–	–	–	–	?
COc1cccc(NC(=S)N2CCC(Cc3ccccc3)CC2)c1	–	–	–	–	–	18µM
Cc1nc2ccn(Cc3ccco3)c(=O)c2cc1C(=O)Nc1ccc(F)cc1	–	·	13µM	–	–	–
CN(C)C(=O)c1ccc(NC(=O)COC(=O)C2(c3ccccc3)CCCC2)cc1	–	·	–	–	·	16µM
NC(=O)c1ccc(NC(=O)COC(=O)C2(c3cccc(F)c3)CCCC2)cc1	–	–	–	–	–	–
Cc1ccc(-c2csc3nc(CSc4nnc(-c5ccc(Cl)cc5)n4C)[nH]c(=O)c23)cc1	–	–	–	–	–	–
Cc1ccc(NS(=O)(=O)c2cccc(Cl)c2)cc1C	·	·	·	–	·	–
Cc1ccc(NS(=O)(=O)c2cc3c4c(cccc4c2)C(=O)NC3=O)cc1C	–	–	–	–	–	15µM
CC(C)NC(=O)C(=O)NCCN1CCN(C(=O)c2ccc(C(C)(C)C)cc2)CC1	–	–	–	–	–	?
CCCCC1(C)Cc2ccccc2C(=S)N1 (configuration not stated)	–	–	–	–	–	–
Cc1ccc(CNc2ccc(-c3nc(-c4ccncc4)no3)cc2[N+](=O)[O-])cc1	–	·	–	–	?	–
Cc1ccc(CNc2ccc(-c3nc(-c4cccnc4)no3)cc2[N+](=O)[O-])cc1	–	·	–	–	?	29µM
S=C(NCc1ccccn1)NN=Cc1ccccn1	–	·	–	?	·	15µM
Cc1ccc(NC(=S)NCc2ccccn2)cc1	–	–	–	–	–	?
Cn1cnc([N+](=O)[O-])c1S(=O)(=O)c1ccc(Cl)cc1	–	–	–	?	?	18µM
CCCN(c1ccc(C(C)C)cc1)S(=O)(=O)c1ccc2c(c1)oc(=O)n2CC(=O)OCC	20µM	·	–	–	–	–
SMILES	Glioma ERSR ind	Mito fusion yeast	Nrf2 ARE act	A549 viability	miR-21 reporter	Nrf2 inh
O=C(N/N=C/c1ccc([N+](=O)[O-])o1)c1ccc(O)cc1	–	–	–	21µM	?	21µM
[O-]/[N+](=C\c1ccccc1)[C@@H]1CCCC[C@@H]1/[N+]([O-])=C/c1ccccc1	–	–	–	–	–	–
O=C(N/N=C\c1ccc([N+](=O)[O-])o1)C1COc2ccccc2O1 (configuration not stated)	–	–	–	–	–	?
O=C(N/N=C/c1ccc([N+](=O)[O-])o1)C1CCCC1	–	–	–	?	–	16µM
O=C(N/N=C/c1ccc([N+](=O)[O-])o1)c1ccncc1	–	–	–	?	–	?
O=[N+]([O-])c1ccc(/C=[N+](\[O-])[C@@H]2CCCC[C@@H]2/[N+]([O-])=C/c2ccc([N+](=O)[O-])o2)o1	–	–	10µM	21µM	–	–
